This note sets out measurements from patent publication US20250177359A1, “COMPOUNDS FOR USE IN THE TREATMENT OF CANCER AND INFLAMMATORY CONDITIONS” (priority 2022, published 2025).

By UniProt entry, the sequences of proteins in these tests, tags left out. Where a name states a change or a piece, a line headed by the entry shows the natural chain unless it says otherwise.
UniProt Q9UGN5: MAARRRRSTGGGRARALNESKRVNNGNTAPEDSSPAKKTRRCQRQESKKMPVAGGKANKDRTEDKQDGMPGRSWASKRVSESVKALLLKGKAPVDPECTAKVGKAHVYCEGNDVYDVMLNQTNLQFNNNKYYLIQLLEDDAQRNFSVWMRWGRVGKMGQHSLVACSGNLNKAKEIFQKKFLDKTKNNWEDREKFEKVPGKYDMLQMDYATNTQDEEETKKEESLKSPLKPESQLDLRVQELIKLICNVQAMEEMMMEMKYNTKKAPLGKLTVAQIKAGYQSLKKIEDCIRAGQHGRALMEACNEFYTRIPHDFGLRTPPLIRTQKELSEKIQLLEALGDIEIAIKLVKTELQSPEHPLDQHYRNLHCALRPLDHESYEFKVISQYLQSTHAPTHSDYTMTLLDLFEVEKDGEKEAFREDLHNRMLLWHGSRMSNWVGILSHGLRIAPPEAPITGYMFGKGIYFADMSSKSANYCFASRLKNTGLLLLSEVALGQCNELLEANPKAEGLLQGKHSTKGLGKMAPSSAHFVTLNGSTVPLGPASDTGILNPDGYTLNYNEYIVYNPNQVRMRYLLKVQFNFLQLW

pIC50: −log10 of the molar value. Read-outs that look alike come from different tables or passages of the source.

One assay deals with T1, PARP15 (Homo sapiens, UniProt Q460N3).
T1 sequence (Q460N3 1-678): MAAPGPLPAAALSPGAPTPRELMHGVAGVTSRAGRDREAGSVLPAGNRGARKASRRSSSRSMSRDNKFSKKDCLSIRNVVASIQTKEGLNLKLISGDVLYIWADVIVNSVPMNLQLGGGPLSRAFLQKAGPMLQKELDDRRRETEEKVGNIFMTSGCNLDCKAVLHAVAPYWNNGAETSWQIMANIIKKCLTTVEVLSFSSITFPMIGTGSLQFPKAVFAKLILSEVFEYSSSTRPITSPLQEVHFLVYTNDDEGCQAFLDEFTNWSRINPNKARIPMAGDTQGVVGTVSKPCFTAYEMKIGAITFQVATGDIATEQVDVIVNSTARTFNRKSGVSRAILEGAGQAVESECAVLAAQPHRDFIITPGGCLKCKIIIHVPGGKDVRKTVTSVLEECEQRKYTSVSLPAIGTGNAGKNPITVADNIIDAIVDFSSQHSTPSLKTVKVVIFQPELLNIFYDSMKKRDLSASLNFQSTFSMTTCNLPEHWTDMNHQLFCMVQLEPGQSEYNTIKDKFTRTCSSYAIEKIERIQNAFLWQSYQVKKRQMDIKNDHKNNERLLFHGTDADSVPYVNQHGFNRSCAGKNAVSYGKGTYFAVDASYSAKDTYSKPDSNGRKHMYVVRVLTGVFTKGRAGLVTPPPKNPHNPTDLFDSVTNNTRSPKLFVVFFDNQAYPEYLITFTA
The experiment in a line: biochemical. On the procedure: (§1) All starting materials, reagents, and solvents were purchased from common commercial suppliers and were used as such without further purification. […] Organic solutions were dried over anhydrous Na2SO4 and concentrated with rotary evaporator at low pressure. All the reactions were routinely checked by thin-layer chromatography (TLC) on silica gel 60F254 (Merck) and visualized by using UV and iodine. Flash chromatography separations were carried out on Merck silica gel 60 (mesh 230-400) or by using automated Buchi Reveleris X2-UV with column FP Ecoflex Si 12 g. Yields were of purified products and were not optimized. ^1HNMR spectra were recorded at 400 MHz (Bruker Avance DRX-400), while ^13CNMR spectra were recorded at 101 MHz (Bruker Avance DRX-400). Chemical shifts are given in ppm (δ) relative to TMS. […] Mating constant (J) are reported in Hz. The purity of the tested compounds was evaluated by HPLC analysis using Jasco LC-4000 instrument equipped with a UV-Visible Diode Array Jasco-MD4015 (Jasco Corporation, Tokyo, Japan), and XTerra MS C18 column, 5 μm×4.6 mm×150 mm (Waters Corporation, Massachusetts, USA). Chromatograms were analyzed by ChromNAV2.0 Chromatography Data System software. […] The peak retention time (ret. time) is given in minutes. […] 1-Isobutoxy-4-methoxy-2-nitrobenzene (113). Isobutyl alcohol (0.6 mL, 6.43 mmol) was added, under nitrogen atmosphere at 0° C., to a suspension of NaH (0.26 g, 6.43 mmol) in dry DMF. After 15 minutes, 1-fluoro-4-methoxy-2-nitrobenzene 112 (1 g, 5.84 mmol) was also added and the reaction mixture was stirred at 80° C. for 4 h. […] (2-Isobutoxy-5-methoxyphenyl)amine (114). Zn (1.57 g, 24 mmol) and NH4C1 (2.45 g, 40 mmol) were added to a solution of 113 (0.46 g, 2 mmol) in acetone/H2O (50 mL, ratio 5:1). The reaction mixture was stirred at 60° C. for 3 h and, then, it was filtered over celite. […] N-(2,5-diethoxyphenyl)thiourea (55). […] N-(2-isobutoxy-5-methoxyphenyl)thiourea (115). […] A solution of Br2 (0.2 mL, 3.3 mmol) in CHCl3 (5 mL) was slowly added to a suspension of 45 (0.6 g, 3.3 mmol) in CHCl3 (13 mL), at 0° C. The reaction mixture was stirred at r.t. for 4 h and, then, a 10% solution of Na2SO3 in water was added to the mixture. […] 4,7-Diethoxy-1,3-benzothiazol-2-amine (66). […] 4-Isobutoxy-7-methoxy-1,3-benzothiazol-2-amine (116).

The target in the next assay is T2, PARP10 (Homo sapiens, UniProt Q53GL7).
T2 construct: made in house
T2 sequence (Q53GL7 1-1025): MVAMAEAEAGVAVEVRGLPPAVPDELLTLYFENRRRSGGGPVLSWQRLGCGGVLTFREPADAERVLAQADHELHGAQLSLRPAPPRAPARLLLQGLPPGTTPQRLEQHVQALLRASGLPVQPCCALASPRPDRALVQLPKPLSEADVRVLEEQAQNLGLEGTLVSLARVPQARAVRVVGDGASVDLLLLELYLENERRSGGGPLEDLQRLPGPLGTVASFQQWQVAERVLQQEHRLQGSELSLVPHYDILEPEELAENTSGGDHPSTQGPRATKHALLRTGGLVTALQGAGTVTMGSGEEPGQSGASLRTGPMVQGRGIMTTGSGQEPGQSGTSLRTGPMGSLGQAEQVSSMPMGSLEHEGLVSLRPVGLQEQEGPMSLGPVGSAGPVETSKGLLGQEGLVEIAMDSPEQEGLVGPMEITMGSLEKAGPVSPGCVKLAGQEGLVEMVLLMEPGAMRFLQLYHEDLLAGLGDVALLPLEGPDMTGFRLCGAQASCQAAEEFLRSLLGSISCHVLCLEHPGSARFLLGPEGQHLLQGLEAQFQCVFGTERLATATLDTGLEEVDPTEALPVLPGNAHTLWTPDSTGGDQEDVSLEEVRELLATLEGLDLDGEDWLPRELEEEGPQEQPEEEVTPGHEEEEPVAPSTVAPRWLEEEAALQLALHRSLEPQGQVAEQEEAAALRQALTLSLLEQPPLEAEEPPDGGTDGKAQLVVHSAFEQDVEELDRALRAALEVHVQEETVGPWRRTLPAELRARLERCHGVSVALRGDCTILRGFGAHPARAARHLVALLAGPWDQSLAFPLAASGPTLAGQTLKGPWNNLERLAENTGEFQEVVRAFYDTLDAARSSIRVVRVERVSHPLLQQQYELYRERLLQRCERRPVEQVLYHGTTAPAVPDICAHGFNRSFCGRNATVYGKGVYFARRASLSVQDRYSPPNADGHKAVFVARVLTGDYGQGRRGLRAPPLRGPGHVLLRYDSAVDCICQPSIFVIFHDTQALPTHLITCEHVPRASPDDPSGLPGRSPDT
Put plainly: Activity assay measuring NAD+ consumption, PARP10 (Tables 1-3). It is filed as biochemical.

A further assay addresses T3, PARP2 (Homo sapiens, UniProt Q9UGN5).
T3 construct: made in house
It is filed as biochemical. As to conditions: NAD+ consumption assay; > less than 50% inhibition at highest concentration, >> no inhibition. On the procedure: as §1

The mark [1] stands for this setting: read-out: PARP15 IC50, Tables 1-3 assay, > less than 50% inhibition, >> no inhibition at reported concentration, * value limited by protein concentration.
Setting [2] is: Tables 1-3 assay, > less than 50% inhibition, >> no inhibition at reported concentration, * value limited by protein concentration, read-out: PARP10 IC50.
The mark [3] stands for this setting: PARP10 IC50, Tables 1-3 assay, > less than 50% inhibition, >> no inhibition at reported concentration, * value limited by protein concentration.

As to `Cc1ccc2c(c1)sc1nncn12` [Compound 1], the pIC50 at PARP15 (setting [1]) and at PARP10 (setting [2]) was 5.49 throughout.

As for `Cc1cc(C)c2c(c1)sc1nncn12` [Compound 2], at PARP15 (Tables 1-3 assay), the “PARP15 pIC50 ± SEM” value is recorded as “(6.11 ± 0.10)”. Also, the negative-log IC50 (pIC50) (usually −log10 of the IC50, conventionally taken in molar units) on PARP10 (setting [2]) is 5.77.

Take `Cc1ccc(F)c2c1sc1nncn12` [Compound 4, 5-Fluoro-8-methyl[1,2,4]triazolo[3,4-b][1,3]benzothiazole]: the pIC50 on PARP15 (setting [1]) is 5.16; on PARP10 (setting [2]), 5.30.

As for `Cc1ccc2sc3nncn3c2c1` [Compound 5, 6-Methyl[1,2,4]triazolo[3,4-b][1,3]benzothiazole], the negative-log IC50 (pIC50) on PARP15 (setting [1]) is 5.18.

In the case of `Cc1cccc2c1sc1nncn12` [Compound 6, 8-Methyl[1,2,4]triazolo[3,4-b][1,3]benzothiazole], the negative-log IC50 (pIC50) on PARP15 (setting [1]) was 5.15; at PARP10 (setting [2]) it was 5.47.

Consider `CCc1ccc2c(c1)sc1nncn12` [Compound 7, 7-Ethyl[1,2,4]triazolo[3,4-b][1,3]benzothiazole], for which the pIC50 on PARP15 (setting [1]) is 5.70. Moreover, the “PARP10 pIC50 ± SEM” value at PARP10 (Tables 1-3 assay) is “(5.31 ± 0.10)”.

On to `CC(C)c1ccc2c(c1)sc1nncn12` [Compound 8, 7-Isopropyl[1,2,4]triazolo[3,4-b][1,3]benzothiazole], for which the pIC50 on PARP15 (setting [1]) is 5.41. Further, the “PARP10 pIC50 ± SEM” value on PARP10 (Tables 1-3 assay) is “(5.26 ± 0.08)”.

For `Clc1ccc2c(c1)sc1nncn12` [Compound 9], the negative-log IC50 (pIC50) on PARP15 (setting [1]) is 5.15; at PARP10 (setting [3]), less than 5.00.

As for `COc1ccc2sc3nncn3c2c1` [Compound 11, 6-Methoxy[1,2,4]triazolo[3,4-b][1,3]benzothiazole], the negative-log IC50 (pIC50) on PARP15 (setting [1]) is 5.15; at PARP10 (setting [2]), 5.74.

For the compound `COc1ccc2c(c1)sc1nncn12` [Compound 12], the values for the pIC50 on PARP15 (setting [1]) and on PARP10 (setting [2]) were 5.40 and 5.19, respectively.

As to `COc1ccc(OC)c2c1sc1nncn12` [Compound 13, 5,8-Dimethoxy[1,2,4]triazolo[3,4-b][1,3]benzothiazole], the pIC50 is 5.80 on PARP15 (setting [1]) and 6.31 on PARP10 (Tables 1-3 assay, read-out: PARP10 IC50).

Regarding `COc1cccc2c1sc1nncn12` [Compound 14, 8-Methoxy[1,2,4]triazolo[3,4-b][1,3]benzothiazole], the “PARP15 pIC50 ± SEM” value on PARP15 (Tables 1-3 assay) is recorded as “(5.93 ± 0.16)”. The pIC50 on PARP15 (setting [1]) was 5.92; on PARP10 (setting [2]), 5.72. The “PARP10 pIC50 ± SEM” value at PARP10 (Tables 1-3 assay) is “(5.71 ± 0.04)”.

With `COc1cccc2sc3nncn3c12` [Compound 15, 5-Methoxy[1,2,4]triazolo[3,4-b][1,3]benzothiazole], at PARP10 (Tables 1-3 assay), the “PARP10 pIC50 ± SEM” value is on record as “(5.30 ± 0.15)”. The negative logarithm of the IC50 (pIC50) at PARP10 (setting [2]) is 5.29.

Regarding `COc1cc(OC)c2sc3nncn3c2c1` [Compound 16, 6,8-Dimethoxy[1,2,4]triazolo[3,4-b][1,3]benzothiazole], the negative-log IC50 (pIC50) on PARP15 (setting [1]) is 5.80; on PARP10 (setting [2]), 5.96.

On to `Oc1ccc(O)c2c1sc1nncn12` [Compound 17, [1,2,4]Triazolo[3,4-b][1,3]benzothiazol-5,8-diol], for which the pIC50 on PARP15 (setting [1]) was 6.54; on PARP10 (setting [2]), 6.49. The “PARP10 pIC50 ± SEM” value at PARP10 (Tables 1-3 assay) was “(6.50 ± 0.04)”.

Consider `Oc1cccc2c1sc1nncn12` [Compound 18, [1,2,4]Triazolo[3,4-b][1,3]benzothiazol-8-ol], for which the “PARP15 pIC50 ± SEM” value on PARP15 (Tables 1-3 assay) is “(5.33 ± 0.11)”. On PARP10 (setting [3]), the negative logarithm of the IC50 (pIC50) was less than 5.00.

Consider `Cc1ccc2c(c1)sc1nnc(O)n12` [Compound 19], for which the negative-log IC50 (pIC50) on PARP10 (setting [2]) is 5.27.

Consider `Cc1ccc2c(c1)sc1nnc(S)n12` [Compound 20], for which the “PARP10 pIC50 ± SEM” value at PARP10 (Tables 1-3 assay) is reported as “(5.81 ± 0.10)”. Moreover, on PARP10 (setting [2]), the pIC50 is 5.82.

For the compound `CSc1nnc2sc3cc(C)ccc3n12` [Compound 21, 7-Methyl-3-(methylthio)[1,2,4]triazolo[3,4-b][1,3]benzothiazole], the negative logarithm of the IC50 (pIC50) at PARP15 is less than 5.00; at PARP10 (setting [2]) it was 5.43. For the same compound, the “PARP10 pIC50 ± SEM” value on PARP10 (Tables 1-3 assay) amounted to 5.45 ± 0.54.

On to `Cc1ccc2c(c1)sc1nnc(SCc3ccc(Cl)cc3)n12` [Compound 23, 3-[(4-Chlorobenzyl)thio]-7-methyl[1,2,4]triazolo[3,4-b][1,3]benzothiazole], for which the negative-log IC50 (pIC50) against PARP15 and against PARP10 (setting [3]) was less than 5.00 throughout.

Regarding `Cc1ccc2c(c1)sc1nnc(NCc3ccc(Cl)cc3)n12` [Compound 24, N-(4-chlorobenzyl)-7-methyl[1,2,4]triazolo[3,4-b][1,3]benzothiazol-3-amine], the negative-log IC50 (pIC50) at PARP15 and against PARP10 (setting [3]) was less than 5.00 in each case.

Turning to `Cc1ccc2c(c1)sc1nnc(/N=C\c3ccc(Cl)cc3)n12` [Compound 25, N-[(1Z)-(4-chlorophenyl)methylene]-7-methyl[1,2,4]triazolo[3,4-b][1,3]benzothiazol-3-amine], the values for the pIC50 at PARP15 (setting [1]) and at PARP10 (setting [3]) were 5.10 and less than 5.00, respectively.

Consider `COc1ccc(OC)c2c1sc1nnc(S)n12` [Compound 26, 5,8-Dimethoxy[1,2,4]triazolo[3,4-b][1,3]benzothiazole-3(2H)-thione], for which the negative logarithm of the IC50 (pIC50) on PARP15 and against PARP10 (setting [3]) was less than 5.00 each time.

For `COc1ccc(OC)c2c1SC1=NNC(SC)N12` (stereo not drawn) [Compound 27, 5,8-Dimethoxy-3-(methylthio)-2,3-dihydro[1,2,4]triazolo[3,4-b][1,3]benzothiazole], the negative logarithm of the IC50 (pIC50) against PARP2 was 5.08.

For the compound `Cc1ccc2c(c1)sc1nncn12` [Compound 105], the pIC50 against PARP15 and against PARP10 (setting [3]) was less than 5.00 in each case.
